Data on 2 molecules can be found in patent publication US12139488B2, “Pyrido[3,2-d]pyrimidine compounds uses thereof for treating a proliferative disease” (Universite de Montreal, priority 2021, dated 2024).

Test [1] has as its system pERK in HepG2 cells (NRAS-Q61L). Briefly: Phospho-ERK inhibition (AlphaLISA), HepG2. Conditions: for HepG2 pERK % Ymin: HepG2, value in parentheses; for IC50: read-out: HepG2 pERK IC50, HepG2. How it is done: (§1) All cancer cell lines (A375, A101D, A2058, RKO, HT29 SK-MEL 30, IPC298, HepG2, HCT-116, Lovo, SWV620, SW480, NCI-H358, NCI-H2122, Calu-6, NCIH2087, NCIH1755, NCIH1666 and Mewo) were obtained from ATCC and cultured in RPMI-1640 medium (Gibco) supplemented with 5% heat inactivated fetal bovine serum (FBS, Wisent) at 37° C. under 5% CO2. Cells were maintained in T175 flasks (Greiner). They were passaged by removing the culture medium, washing once in 10 mL of room temperature Phosphate Buffered Saline (PBS; Wisent) and incubating at 37° C. with 2 mL of 0.05% Trypsin (Thermo-Fisher). Trypsin was then inactivated by adding complete growth medium and the cells were then replated in a T175 culture dish at the appropriate dilution. All cell lines were routinely tested for mycoplasma contamination. Tissue type and mutational status of each cell line can be found in Table B.
(§2) AlphaLISA® SureFire® Ultra™ p-ERK 1/2 (Thr202/Tyr204) analysis was conducted on cells plated in 100 μL of complete RPMI-1640 growth medium in 96-well flat-bottomed transparent dishes (Costar) at a density indicated in Table C. Cells were maintained overnight at 37° C. under 5% CO2 before treatment with compounds' dilution series for one hour. The cell density in cells/cm^2 corresponds to cell number divided by the area of one well of a 96-well plate ([…]).
(§3) In a dilution series 100 μL/well of test substance dilution prepared in complete RPMI-1640 growth media was added to the cells. The dilution series is selected so that ten concentrations cover a range from 10 μM to 0.33 nM. If necessary the initial concentration of 10 μM is increased to 100 μM or lowered to 1 μM (as in the case of A375 and H1666 cells, which are generally more sensitive to the compounds) and further dilution is carried out accordingly. The final concentration of DMSO in the assay is set at 0.5%.
(§4) After treatment, media was removed and cells were lysed in 50 μL of 1× AlphaScreen Ultra Lysis Buffer (Perkin Elmer). The AlphaLISA® SureFire® Ultra™ p-ERK 1/2 (Thr202/Tyr2O4) (PerkinElmer) reactions were performed with 5 μL of cell lysate according to the manufacturer's specifications in 384-well proxyplates (Perkin Elmer) followed by overnight incubation of the reactions at room temperature in a humidified chamber. After completion of the reactions, the signals were recorded on an EnVision plate reader (Perkin Elmer) using built in AlphaLISA® settings.
(§5) The effect of each compound dilution on the pERK signal was expressed in % inhibition and calculated as follows. An internal 100% inhibition control ([…] trametinib, cat #HY-10999; MedChem Express; CAS #871700-17-3) was included in each plate and used as a measure of pERK background. First, the value obtained for trametinib was subtracted from each data point. The average of DMSO (vehicle) controls (set as 0% inhibition) was established and used to calculate % inhibition: % inhibition=100*(1-((pERK signalcompound)/(pERK signalDMSO)))
(§6) The ability of each compound to inhibit pERK signal was expressed as an IC50 value obtained by plotting the inhibition values for each data point of a dilution series and fitting the obtained curves using a log(agonist) versus response-variable slope (four parameters) function using GraphPadPrism (V7.0) or Dotmatics Screening Ultra platform.
(§7) When present, paradoxical pERK induction is inferred from the negative % inhibition values observed in the pERK IC50 curves of a compound.

Test [2] deals with SK-MEL30 cells (NRAS-Q61K). The experiment in a line: Proliferation inhibition (CellTiter-Glo), SK-MEL30. Conditions: read-out: SK-MEL30 Prolif. EC50; SK-MEL30, 3 days. The protocol:
as §1
(§8) CellTiter-Glo® viability analysis was conducted on cells plated in 100 μL of complete RPMI-1640 growth medium in 96-well flat-bottomed white opaque plates (Greiner or Croning) at a density indicated in Table E (for each CCL, number of cells plated per well of a 96-well plate to perform the CellTiter-Glo® cell viability assay). The cell density in cells/cm^2 would correspond to cell number divided by the area of one well of a 96-well plate (0.32 cm^2). Cells were maintained overnight at 37° C. under 5% CO2 before treatment with compounds' dilution series for 3 days.
(§9) In a dilution series 100 μL/well of test substance dilution prepared in complete RPMI-1640 growth media was added to the cells plated initially in 100 μL of growth media. The dilution series is selected so that ten concentrations cover a range from 10 μM to 0.33 nM. If necessary (as in the case of A375 cells, which were more sensitive to the compounds) the initial concentration of 10 μM is lowered to 1 μM and further dilution is carried out accordingly. The final concentration of DMSO in the assay is set at is 0.5%.
(§10) After 3 days of incubation, the growth media were removed by aspiration and 60 μL of diluted CellTiter-Glo® reagent (10 μL CellTiter-Glo® reagent+50 μL of PBS) was added to each well. Cells were allowed to lyse and to equilibrate in CellTiter-Glo® reagent by 5 min incubation on a plate shaker followed by 10 min incubation at room temperature. Luminescence signals were then acquired on a Synergy Neo2 plate reader (Biotek).
(§11) The effect of each compound dilution on the proliferation of cancer cell lines was expressed in % inhibition and calculated as follows. An internal 100% inhibition control (1 μM of trametinib; cat #HY-10999; MedChem Express; CAS #871700-17-3) was included in each plate and used as a measure of CellTiter-Glo® signal background. The value obtained for trametinib was subtracted from each data point. The average of DMSO (vehicle) controls (set as 0% inhibition) was established and used to calculate % inhibition: % inhibition=100*(1−((CellTiter-Glo® signalcompound)/(CellTiter-Glo® signalDMSO)))
(§12) The ability of each compound to inhibit proliferation was expressed as a EC50 value obtained by plotting the effect values for each data point of a dilution series and fitting the obtained curves using a log(agonist) versus response-variable slope (four parameters) function using GraphPadPrism (V7.0) or Dotmatics Screening Ultra platform.

The subject of test [3] is SW480 cells (KRAS G12D). Briefly: Proliferation inhibition (CellTiter-Glo), SW480. As to conditions: read-out: SW480 Prolif. EC50; SW480, 3 days. The protocol:
as §1, §8, §9, §10, §11, §12
(ATP-based viability assays read luminescence as a measure of living cells.)

Test [4] deals with NCIH1755 cells (BRAF G469A). The experiment in a line: Proliferation inhibition (CellTiter-Glo), NCIH1755. Conditions: read-out: NCIH1755 Prolif. EC50; NCIH1755, 3 days. How it is done:
as §1, §8, §9, §10, §11, §12

Test [5] relates to pERK in SW480 cells (KRAS G12D). Briefly: Phospho-ERK inhibition (AlphaLISA), SW480. As to conditions: for SW480 pERK % Ymin: SW480, Table D, value in parentheses; for SW480 pERK % Ymin (lowest value of the IC50 curve): SW480 cells, Ymin above −20% = minimal or no paradoxical activation. Put shortly: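 Read-out: AlphaLISA p-ERK1/2 (Thr202/Tyr204) in lysates after 1 h exposure to compound in complete RPMI-1640, 5% FBS, 0.5% DMSO. Trametinib defined 100% inhibition and vehicle 0%; IC50 values come from four-parameter curves. Negative inhibition was taken as paradoxical pERK induction.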
In general terms: Bead proximity is the source of the signal in Alpha formats.

Test [6] deals with pERK in IPC298 cells (NRAS-Q61L). Briefly: Phospho-ERK inhibition (AlphaLISA), IPC298. Conditions: for IPC298 pERK % Ymin: IPC298, value in parentheses; for IC50: read-out: IPC298 pERK IC50, IPC298. The protocol:
as §1, §2, §3, §4, §5, §6, §7

Usually IC50 stands for the concentration that gives 50% inhibition. Usually EC50 stands for the midpoint of the concentration-response curve. Turning to `O=S(=O)(Nc1ccc(F)c(Nc2ncnc3ccc(-n4cnc5c(N6CCC7(CCCC7)CC6)cccc54)nc23)c1F)c1cccc(Cl)c1Cl`, the “HepG2 pERK % Ymin” value in test [1] worked out at 20%. Besides, the IC50 in test [1] was under 30 nM; in test [6] it was 30 to 300 nM. Besides, the EC50 in test [2] was under 30 nM; in test [3], 300 to 3000 nM; in test [4], under 30 nM. Moreover, in test [5], the “SW480 pERK % Ymin” value is recorded as 5%. The “SW480 pERK % Ymin (lowest value of the IC50 curve)” value in test [5] stood at 5%. For the same molecule, in test [6], the “IPC298 pERK % Ymin” value amounted to 14%.

Take `Cc1c(Cl)csc1S(=O)(=O)Nc1ccc(F)c(Nc2ncnc3ccc(-n4cc(S(=O)(=O)N(C)CCN(C)C)c5ccccc54)nc23)c1F`: the “HepG2 pERK % Ymin” value in test [1] worked out at 1%. The IC50 in test [1] and in test [6] was 30 to 300 nM throughout. In addition, the results for the EC50 in test [2], in test [3] and in test [4] were under 30 nM, 300 to 3000 nM and 300 to 3000 nM, respectively. The “SW480 pERK % Ymin” value in test [5] was found to be 2%. Further, in test [5], the “SW480 pERK % Ymin (lowest value of the IC50 curve)” value amounted to 2%. In test [6], the “IPC298 pERK % Ymin” value is recorded as −13%.
